Laboratory results taken from patent US20090137662A1, “SYNERGY OF DOPAMINE D2 AND ADENOSINE A2 RECEPTORS ACTIVATES PKA SIGNALING VIA BETA/GAMMA DIMERS” (The Regents of the University of California, priority 2002, published 2009).

Tests used:
[1] = system: CRE-mediated gene expression; test: CRE-luciferase reporter assay in NG108-15/D2 cells; details: spiperone 10 μM, Rp-cAMPS 20 μM, BW A1434U 10 μM 30 min, PTX 50 ng/ml or QEHA overnight; for effect on NPA-dependent increases in luciferase activity / CRE-mediated gene expression: 50 nM NPA 10 min; for effect on ethanol-induced luciferase expression / CRE-mediated gene expression: 100 mM ethanol 10 min
[2] = system: PKA Cα; test: PKA Cα translocation in primary cultures of hippocampal neurons; details: spiperone 10 μM, BW A1434U 10 μM, DPCPX 100 nM, DMPX 10 μM 30 min, Rp-cAMPS 20 μM 1.5 hours, PTX 50 ng/ml or Ad5QEHA overnight
[3] = system: PKA Cα; test: PKA Cα translocation in NG108-15/D2 cells (immunocytochemistry, cell fractionation/western); details: preincubation: spiperone 10 μM 30 min, PTX 50 ng/ml overnight, Rp-cAMPS 20 μM 1.5 hr, BW A1434U 10 μM 30 min, Ad5βARK1/Ad5QEHA/Ad5SKEE transfection; for effect on NPA-induced PKA Cα translocation: 50 nM NPA 10 min; for effect on ethanol-induced PKA Cα translocation: 100 mM ethanol 10 min

SMILES | effect on NPA-dependent increases in luciferase activity / CRE-mediated gene expression [1] | effect on ethanol-induced luciferase expression / CRE-mediated gene expression [1] | effect on ethanol-induced PKA Cα translocation [2] | effect on NPA-induced PKA Cα translocation [3] | effect on ethanol-induced PKA Cα translocation [3]
O=C(CCCN1CCC2(CC1)C(=O)NCN2c1ccccc1)c1ccc(F)cc1 [spiperone] | blocks | no effect | no effect | blocked | no effect
Nc1ncnc2c1ncn2[C@@H]1O[C@@H]2CO[P@@](O)(=S)O[C@H]2[C@H]1O [Rp-cAMPS] | blocked | blocked | prevent | blocks | blocks
C#CCn1c(=O)c2c(ncn2C)n(C)c1=O [DMPX] | – | – | prevents | – | –
